# Most compounds without a hit are left out; they make up all but 3.7% or so of the library.
# miR-21 FLuc: miR-21 reporter, rising signal. HeLa miR-21 FLuc reporter, luciferase, 48 h. Potency, µM (highest dose often 38.3 µM), for the others: at the highest dose reporter change, positive = more light. 340,000 tested, under 10 active. AID 2288; active = well fitted rising curve with a large enough effect; inconclusive = small, poorly fitted or top-dose-only effect; inactive = no such curve, though single readings can be large or run the other way;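 further: % of control where 0% means no effect; miR-21 action dims this reporter so a rising signal means less miR-21 action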
#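 Luminescence from a firefly luciferase reporter carrying a miR-21 binding site downstream, stably expressed under a CMV promoter in HeLa cells that make miR-21 endogenously, reports miRNA modulation after 48 h compound exposure up to approximately 40uM final.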
# Nrf2 inh: Nrf2 pathway inhibition | 360,000 compounds, 2.1% hits | Potency, µM (series often up to 46 µM), for inactives: at the highest dose activity change, negative = inhibition, usual class: inhibitors | A549 ARE-Fluc reporter, luciferase luminescence, 18-24 h; further: potency means the concentration at half of the fitted maximal effect; on the % scale 0 is the no-effect control and ±100 the full control effect; nearly all actives have a fitted effect of over 60% in size
#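 Two sequential reads on A549 ARE_Fluc cells exposed to compound for 18-24 h: a CellTiter-Fluor fluorescence read for viability, then a luciferase luminescence read for Nrf2/ARE activity.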
# ClpP mod: qHTS Assay for Activators of ClpP; ATP-dependent Clp protease proteolytic subunit (Bacillus subtilis (strain 168)), P80244; purified B. subtilis ClpP, FRET peptide cleavage, 20 min; Potency, µM (titrated, usually from 57.5 µM), without a hit: at the top dose activity change, negative = active; AID 651965, 2013; 340,000 compounds, 1.9% hits; active means well fitted falling curve with a large enough effect; inconclusive means small, poorly fitted or top-dose-only effect; inactive means no such curve, though single readings can be large or run the other way; further: potency means the concentration at half of the fitted maximal effect; the source files actives as falling curves though it sought activators and does not explain the sign; nearly all actives have a fitted effect of over 65% in size
#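 Purified B. subtilis ClpP, 10 microg/mL final in Tris/HCl pH8 with KCl, BSA, glycerol and Tween-20, cleaved an Abz/nitrotyrosine-quenched decapeptide. Fluorescence (ex 320, em 430) was read at 0 and 20 min at room temperature. Delta was normalized to 5.8 microM ADEP and DMSO/no-enzyme controls.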
# TCR activator: T cell receptor activation | primary human leukocytes, anti-CD3, IL-2 HTRF, 48 h | Potency, µM (doses to about 9.22 µM), for the others: top-dose activation of IL-2 secretion, usual class: activators | 330,000 tested, under 10 active; further: % of control where 0% means no effect
#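 TCR engagement came from a-CD3 beads alone, with compounds added to primary human leukocytes for 48 hr. Secreted IL-2 bridged europium cryptate- and d2-labelled anti-IL-2 antibodies, giving FRET emission at 665nm after 320nm excitation.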
# Nrf2 activator: activators of Nrf2 (ARE) signaling; AREc32 ARE-luciferase reporter (MCF7-derived line), luminescence, 24 h; Potency, µM (highest dose often 46.1 µM), for the others: at the top dose activation, hits mostly activators; 410,000 compounds, 0.31% hits; further: potency means the concentration at half of the fitted maximal effect; % of control where 0% means no effect; nearly all actives have a fitted effect of over 65% in size
#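 Cells of the AREc32 ARE-luciferase line are plated in OPTI-MEM containing 5% FBS and left overnight at 37 deg C. Compounds are pinned in, incubation continues 24 hr, and firefly luciferase signal is then measured.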
# A549 tox: counter-screen for Nrf2 inhibitors: cytotoxicity in A549 cells. 390,000 compounds, 0.16% hits. Potency, µM (titrated, usually from 46 µM), without a hit: at the highest dose activity change, negative = cytotoxicity, most hits filed as inhibitors. A549 ARE-Fluc cells, CellTiter-Fluor viability, 18-24 h; further: potency means the concentration at half of the fitted maximal effect; on the % scale 0 is the no-effect control and ±100 the full control effect
#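 A549 ARE-Fluc cells in 5% FBS OPTI-MEM, 5000 cells/well, rested 2 h then exposed to compounds in concentration-response for 18-24 h at 37 °C. Viability by CellTiter-Fluor fluorescence (Ex 405/Em 525) after 30 min; luciferase luminescence (BugLite, 15 min, RT) read afterwards.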
# * hit, by the source's call; ? = inconclusive; . = no result; [ ] = remark or other dose. Unless noted, the call rests on the fitted dose curve; in most records, active means well fitted curve in the direction sought with a large enough effect; inconclusive means small, poorly fitted or top-dose-only effect, or another doubt; inactive means no such curve, though single readings can be large; an effect the other way counts as inactive or inconclusive.
SMILES,Nrf2 activator,ClpP mod,Nrf2 inh,A549 tox,TCR activator,miR-21 FLuc
Cn1c(=O)c2c(nc(N3CCCCCC3)n2Cc2cccc3ccccc23)n(C)c1=O,0%,-1%,?,23µM*,-19%,-3%
COc1ccccc1Oc1nc2c(c(=O)n(C)c(=O)n2C)n1Cc1cccc(Br)c1,0%,0%,16µM*,0%,.,-7%
Cn1c(=O)c2c(nc(Br)n2Cc2ccccc2Cl)n(C)c1=O,-1%,2%,.,-1%,-1%,-1%
Cn1c(=O)c2c(nc(Cl)n2CCOc2ccccc2)n(C)c1=O,0%,-1%,26µM*,4%,0%,2%
O=S(=O)(c1ccc2c(c1)OCCO2)N1CCN(S(=O)(=O)c2cc(F)c(Br)cc2F)CC1,.,.,-1%,2%,.,.
CCOc1ccc(C(O)(c2ccccc2)C(CN2CCCC2)c2ccccc2)cc1 (stereo unspecified),0%,.,2%,0%,1%,2%
COc1ccc(-c2cc3nccc(-c4cc(Cl)c(C)cc4O)n3n2)cc1,5%,30%,-8%,-5%,.,-8%
Cc1ccc(CC(CC(=O)O)C(=O)NCc2ccccc2)cc1 (stereo unspecified),-1%,16µM*,2%,3%,-3%[46.1 µM],-8%

# Ordered by molar mass (high to low): part of the list above
SMILES,Nrf2 activator,ClpP mod,Nrf2 inh,A549 tox,TCR activator,miR-21 FLuc
O=S(=O)(c1ccc2c(c1)OCCO2)N1CCN(S(=O)(=O)c2cc(F)c(Br)cc2F)CC1,.,.,-1%,2%,.,.
Cn1c(=O)c2c(nc(Br)n2Cc2ccccc2Cl)n(C)c1=O,-1%,2%,.,-1%,-1%,-1%
Cn1c(=O)c2c(nc(Cl)n2CCOc2ccccc2)n(C)c1=O,0%,-1%,26µM*,4%,0%,2%

# The main list resumes; the 2 compounds before the break are reprinted first.
SMILES,Nrf2 activator,ClpP mod,Nrf2 inh,A549 tox,TCR activator,miR-21 FLuc
COc1ccc(-c2cc3nccc(-c4cc(Cl)c(C)cc4O)n3n2)cc1,5%,30%,-8%,-5%,.,-8%
Cc1ccc(CC(CC(=O)O)C(=O)NCc2ccccc2)cc1 (stereo unspecified),-1%,16µM*,2%,3%,-3%[46.1 µM],-8%
Cc1ccc(Cn2cccc(NC(=O)NCc3ccccc3)c2=O)cc1,9%,32µM*,-15%,-2%,-6%,2%
CSc1ccc(NC(=O)Nc2cccn(Cc3ccccc3)c2=O)cc1,3%,0%,12µM*,?,1%,-20%
COc1ccc(Cn2cccc(NC(=O)Nc3ccc(F)cc3)c2=O)cc1,4%,4%,?,-1%,6%,-2%
COc1ccc(Cn2cccc(NC(=O)Nc3cccc(OC)c3)c2=O)cc1,0%,3%,5.2µM*,?,3%,23%
C=CCN(CC=C)c1ccc(/C=C/c2ccnc3ccccc23)cc1,.,-7%,.,.,.,.
O=c1nc(-c2ccccc2)c2cc(SC(F)F)ccc2[nH]1,0%,1%,-21%,-7%,-3%,-2%
CCOc1ccc(NC(=O)CN(C)C(=O)CSCc2ccc(C)cc2)cc1OCC,-1%,-2%,-6%,-10%,3%,.
COc1cccc(Cn2cccc(NC(=O)Nc3ccccc3C)c2=O)c1,9%,4%,?,-4%,3%,0%
COc1cccc(NC(=O)Nc2cccn(Cc3ccccc3)c2=O)c1,6%,?,12µM*,-28%,-3%,4%
CNc1c(NS(=O)(=O)c2ccc3c(c2)CCCC3)c(=O)oc2ccccc12,-1%,.,-2%,1%,-1%,3%
O=C(CN1C(=O)/C(=C\c2ccc(F)cc2)Oc2ccccc21)N1CCN(c2ccccn2)CC1,1%,22µM*,0%,4%,-5%[46.1 µM],-10%
Cc1ccc(S(=O)(=O)CCC(=O)NCCN2C(=O)S/C(=C\c3ccccc3)C2=O)cc1,13%,2%,18%,0%,-2%[46.1 µM],-13%
O=C(CCS(=O)(=O)c1ccc(Cl)cc1)NCCN1C(=O)S/C(=C\c2ccccc2F)C1=O,8%,28µM*,-8%,7%,-1%[46.1 µM],-9%
Cc1nc2ccccc2c2oc(C(=O)Nc3ccc4c(c3)OCCO4)cc12,1%,254%,23µM*,-29%,-3%,-2%
Cc1nc2ccccc2c2oc(C(=O)Nc3ccc(C(C)C)cc3)cc12,-1%,-16%,15µM*,?,2%,21%
CCN(CC)S(=O)(=O)c1ccc2c(c1)N(CC(=O)N1CCN(c3cccc(C(F)(F)F)c3)CC1)C(=O)CO2,5%,-4%,.,-24%,.,9%
Cc1c(CCC(=O)NCCCCCC(=O)O)c(=O)oc2c(C)c3oc4c(c3cc12)CCCC4,-1%,?,?,2%,-5%,-3%
Cc1c(CCC(=O)N2CCC[C@H]2C(=O)O)c(=O)oc2c(C)c3oc4c(c3cc12)CCCC4,-3%,4%,6.5µM*,-9%,-4%,12%
COc1ccc(NC(=O)C2CCN(C(=O)c3sc4nc[nH]c(=O)c4c3C)CC2)c(OC)c1,1%,-3%,.,-5%,.,-8%
COc1cc(-c2ccccc2)nc2ccccc12,16%,0%,5%,-5%,-5%[46.1 µM],-5%
COc1ccc2cc(-c3cc(C(=O)O)c4ccccc4n3)ccc2c1,-2%,25µM*,?,-12%,3%,?
COc1ccc(-c2cc(C(=O)N3CC(C)CC(C)C3)c3ccccc3n2)cc1 (stereo unspecified),6%,28µM*,-4%,-8%,-1%,.
COc1cc2ccccc2cc1C(=O)N1CC(C)CC(C)C1 (stereo unspecified),-1%,-16%,12µM*,-14%,-3%,5%
COc1ccc(-c2cc(OC)c3ccccc3n2)cc1,5%,20µM*,20%,-11%,-5%[46.1 µM],-30%
COc1cc2ccccc2cc1C(=O)N1CCCC1,0%,?,?,1%,-16%,1%
COc1ccc(-c2cc(C(=O)N3CCN(c4ccccc4)CC3)c3ccccc3n2)cc1,4%,.,?,-9%,1%,0%
CC1(C)N=C(Nc2nc3ccccc3o2)NC2=C1C(=O)CCC2,.,.,?,-1%,.,.
CCOc1ccc(-c2cc(C(=O)N3CCN(C)CC3)c3ccccc3n2)cc1,1%,28µM*,1%,-1%,0%,-29%
CCOc1ccc(-c2cc(C(=O)N3CCCC3)c3ccccc3n2)cc1,4%,14µM*,?,3%,-3%,-20%
Cc1cc2ncn(C(=O)c3cc(-c4ccccc4)nc4ccccc34)c2cc1C,0%,14µM*,3%,1%,-1%[46.1 µM],-11%
CC(=O)c1ccc(N2CCN(C(=O)c3cc(-c4ccc5c(c4)OCO5)nc4ccccc34)CC2)cc1,4%,32µM*,.,-7%,-8%,9%
COc1ccc(-c2cc(C(=O)N3CCCC3)c3ccccc3n2)cc1,6%,4%,?,0%,-3%,-34%
Cc1cnn(C(=O)c2cc(-c3ccccc3)nc3ccccc23)c1,0%,18%,2%,-1%,1%,-12%
CCOC(=O)N1CCN(C(=O)c2cc(-c3ccncc3)nc3ccccc23)CC1,1%,-9%,19%,-21%,-1%,.
CC1CN(C(=O)c2cc(-c3ccc(Cl)s3)nc3ccccc23)CC(C)O1 (stereo unspecified),0%,28µM*,?,1%,0%,.
CCOC(=O)N1CCN(C(=O)c2cc(-c3ccc(OCC)cc3)nc3ccccc23)CC1,2%,28µM*,?,-22%,0%,2%

# Bioassay records as filed in PubChem.
